The results in this text go back to patent US20220387618A1, “METHODS OF TREATING HER2 POSITIVE BREAST CANCER WITH TUCATINIB IN COMBINATION WITH AN ANTI-HER2 ANTIBODY-DRUG CONJUGATE” (Seagen Inc., priority 2019, published 2022).

The subject of the data set is BT-474 breast cancer cells. Kind of data set: Intracellular drug measurement of the T-DM1 adduct Lys-MCC-DM1 by mass spectrometry. The data set is classed as cell-based. The settings on record: BT-474 cell lysates. The method, then:
To directly measure the rates of ADC catabolism, cell lysates were analyzed by mass spectrometry for the T-DM1 adduct, Lys-MCC-DM1. FIGS. 11A, 11B, and 11C show a schematic of intracellular drug measurement studies, the structure of the primary T-DM1 catabolite, Lys-MCC-DM1, and the concentration of Lysine-MCC-DM1 over timepoints.
The cell lysates (e.g., BT-474) were analyzed by mass spectrometry for the T-DM1 adduct, Lys-MCC-DM1.
BT-474 breast cancer cells were treated with T-DM1 (3 ug/ml), in either the presence or absence of tucatinib (100 nM). Both supernatant and cells were harvested at timepoints spanning 72 hours for each treatment condition. Samples were analyzed by mass spectrometry to determine the concentration of T-DM1 adducts.

“Also recorded” adds a separate entry of the source.

Consider “ado-trastuzumab emtansine [T-DM1, reference compound]”, for which the “catabolism of T-DM1 in cells” value is recorded as “majority of T-DM1 is proteolyzed into Lys-MCC-DM1 adduct; also recorded: predominantly proteolyzed into the Lys-MCC-DM1 adduct”.
